{"source": "patent EP0385445A2", "about": "“Method of forming a suspension and composition formed by said method” (Horikoshi, Isamu, priority 1989, dated 1990)", "experiment": "Oral absorption of lipid-soluble drugs reduced to microspheres with MFGM", "details": "drug reduced to microspheres with MFGM"}
{"substance": "vitamin D", "values": [{"measurement": "ability of MFGM to promote the absorption", "result": "also observed"}]}
